PubChem BioAssay AID833 (The Scripps Research Institute Molecular Screening Center, 2007)
The entries are a selection whose mix differs from that of the whole data set. The source made the active and inactive calls. Cut-off read from the data, not from the text of the source: active = activation above about 15%; inactive = the rest.

By UniProt entry, the sequences of proteins in these tests, tags left out. Where a name states a change or a piece, a line headed by the entry shows the natural chain unless it says otherwise.
UniProt O08726: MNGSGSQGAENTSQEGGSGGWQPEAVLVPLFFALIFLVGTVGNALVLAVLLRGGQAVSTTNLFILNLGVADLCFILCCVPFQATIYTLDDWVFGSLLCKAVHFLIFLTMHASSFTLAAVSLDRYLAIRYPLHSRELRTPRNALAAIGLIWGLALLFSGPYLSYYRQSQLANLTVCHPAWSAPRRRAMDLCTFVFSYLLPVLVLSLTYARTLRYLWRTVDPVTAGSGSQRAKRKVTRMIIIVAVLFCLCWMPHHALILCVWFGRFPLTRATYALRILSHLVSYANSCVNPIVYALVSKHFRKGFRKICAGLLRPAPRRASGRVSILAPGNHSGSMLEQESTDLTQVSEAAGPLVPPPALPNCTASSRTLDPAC

target: Galanin receptor type 2 (Rattus norvegicus) (UniProt O08726); test: activates the rat galanin receptor 2 (AID 833); conditions: cell-based GALR2 agonist screen; at 10 µM; active compounds read high

Compound | activation
CCOC(=O)/C(=N/Nc1ccc([N+](=O)[O-])cc1)N1CC1 | inactive: -7.58%
O=C(OC1CN2CCC1CC2)c1cccc([N+](=O)[O-])c1 (configuration not stated) | inactive: -6.96%
